# From article PMC5931996 (Scientific Reports, 2018)
# Test system: mice
# Details: 2.0 mg/kg oral 1 h before test, mean ± S.E.M.
compound,measurement,value
"O=C1CCc2ccc(OCCCCN3CCN(c4cccc(Cl)c4Cl)CC3)cc2N1 [Aripiprazole, reference compound]",forelimb catalepsy duration (longest),28.84 ± 4.72 s
